Our source for the IC50 values is ChEMBL document CHEMBL2321777, “Selective mGAT2 (BGT-1) GABA uptake inhibitors: design, synthesis, and pharmacological characterization” (J Med Chem, 2013).

Usually IC50 stands for the midpoint of a concentration-inhibition curve.

This assay deals with Sodium- and chloride-dependent GABA transporter 1 (Mus musculus, UniProt P31648). The assay is described as follows: Inhibition of [3H]GABA uptake at mouse GAT1 expressed in HEK293 cells after 3 mins by scintillation counting analysis. Format: cell-based. Put shortly: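 Uptake measured in primary mouse cortical astrocyte or neuron cultures, or in cells stably overexpressing the respective recombinant mGAT. Cells were incubated at 37 °C in phosphate-buffered saline with [3H]GABA (1 μCi/mL), 1 μM GABA and increasing inhibitor concentrations. After 3 min, uptake was stopped by automated washing. Cells were solubilized in scintillant, radioactivity was counted, and inhibition curves were analyzed.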

`O=C(O)[C@@H]1CCCNC1` [(R)-NIPECOTIC ACID] gave an IC50 of 25 µM.
